Earlier results in Sander's compilation of Henry's law constants (doi:10.1016/s0045-6535(00)00505-1).

Assay: Henry solubility constant Hcp at 298.15 K (mol/(m3 Pa))
Conditions: reference: Staudinger and Roberts (2001); cited value

Row | Compound | Henry solubility constant Hcp
1 | CCl [chloromethane] | 0.0011
2 | CCC(C)O[N+](=O)[O-] (configuration not stated) [2-butyl nitrate] | 0.0064
